Values of other authors in article PMC13466294, “Nucleolaron1511 and Nucleolaron1510 Facilitate Effective Intracellular Delivery of Azami Green Protein in HeLa Cells” (International Journal of Molecular Sciences, 2026).

Tested on: four cell lines
Conditions: CPP fused to EGFP, across four cell lines; ref 45 (Patel et al.); cited from earlier work
Description: To quantify intracellular delivery, flow cytometry was performed following a stringent surface-depletion protocol. Cells were washed with an acidic glycine-NaCl solution to disrupt electrostatic interactions between surface-bound AG–CPP and the plasma membrane, then treated with trypsin, which both detaches cells from the culture plate and cleaves CPP sequences at arginine and lysine residues—amino acids abundant in all constructs tested—thereby eliminating residual surface-associated fluorescence. This protocol ensures that the measured fluorescence predominantly reflects int ...

Transportan
Uptake efficiency relative to TAT: approximately 2.4 fold
